The chains behind the UniProt entries cited, without tags or fusion partners.
UniProt P03372, whole entry: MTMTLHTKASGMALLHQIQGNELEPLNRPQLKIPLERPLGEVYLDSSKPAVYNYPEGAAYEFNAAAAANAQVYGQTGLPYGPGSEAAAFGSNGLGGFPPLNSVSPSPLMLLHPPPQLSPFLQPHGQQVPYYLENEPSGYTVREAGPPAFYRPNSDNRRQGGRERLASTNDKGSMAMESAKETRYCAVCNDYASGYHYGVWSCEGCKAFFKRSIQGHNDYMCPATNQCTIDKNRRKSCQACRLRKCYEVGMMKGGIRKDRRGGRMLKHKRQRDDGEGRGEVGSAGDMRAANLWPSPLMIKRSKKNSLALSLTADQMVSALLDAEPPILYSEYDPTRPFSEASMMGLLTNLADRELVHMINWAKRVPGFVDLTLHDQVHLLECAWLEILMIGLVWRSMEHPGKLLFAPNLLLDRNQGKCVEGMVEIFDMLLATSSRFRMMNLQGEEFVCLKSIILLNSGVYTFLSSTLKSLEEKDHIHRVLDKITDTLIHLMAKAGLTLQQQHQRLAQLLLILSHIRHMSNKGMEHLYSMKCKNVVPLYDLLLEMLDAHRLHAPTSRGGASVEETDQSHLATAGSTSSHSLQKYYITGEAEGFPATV

According to patent US20040043420A1, “Method of identifying conformation-sensitive binding peptides and uses thereof” (priority 2003, published 2004):

Molecular target: ERα (Homo sapiens, UniProt P03372)
Test: Binding of the peptide probes to ERα in the presence of modulators, dose response (Table 15a)
Settings: positive: % of maximum stimulation by 4-OH tamoxifen, negative: % of reduction by ICI 182,780

CC/C(=C(\c1ccc(O)cc1)c1ccc(/C=C/C(=O)O)cc1)c1ccccc1 [GW7604]
0%: Equiv. (equivalency), peptide probe α/βIII on ERα (probe α/βIII) | Equiv. (equivalency), peptide probe α/βIV on ERα (probe α/βIV) | Equiv. (equivalency), peptide probe α/βV on ERα (probe α/βV)
